Amino acid sequences for entries named in this document (tags omitted).
UniProt E9Q401, whole entry: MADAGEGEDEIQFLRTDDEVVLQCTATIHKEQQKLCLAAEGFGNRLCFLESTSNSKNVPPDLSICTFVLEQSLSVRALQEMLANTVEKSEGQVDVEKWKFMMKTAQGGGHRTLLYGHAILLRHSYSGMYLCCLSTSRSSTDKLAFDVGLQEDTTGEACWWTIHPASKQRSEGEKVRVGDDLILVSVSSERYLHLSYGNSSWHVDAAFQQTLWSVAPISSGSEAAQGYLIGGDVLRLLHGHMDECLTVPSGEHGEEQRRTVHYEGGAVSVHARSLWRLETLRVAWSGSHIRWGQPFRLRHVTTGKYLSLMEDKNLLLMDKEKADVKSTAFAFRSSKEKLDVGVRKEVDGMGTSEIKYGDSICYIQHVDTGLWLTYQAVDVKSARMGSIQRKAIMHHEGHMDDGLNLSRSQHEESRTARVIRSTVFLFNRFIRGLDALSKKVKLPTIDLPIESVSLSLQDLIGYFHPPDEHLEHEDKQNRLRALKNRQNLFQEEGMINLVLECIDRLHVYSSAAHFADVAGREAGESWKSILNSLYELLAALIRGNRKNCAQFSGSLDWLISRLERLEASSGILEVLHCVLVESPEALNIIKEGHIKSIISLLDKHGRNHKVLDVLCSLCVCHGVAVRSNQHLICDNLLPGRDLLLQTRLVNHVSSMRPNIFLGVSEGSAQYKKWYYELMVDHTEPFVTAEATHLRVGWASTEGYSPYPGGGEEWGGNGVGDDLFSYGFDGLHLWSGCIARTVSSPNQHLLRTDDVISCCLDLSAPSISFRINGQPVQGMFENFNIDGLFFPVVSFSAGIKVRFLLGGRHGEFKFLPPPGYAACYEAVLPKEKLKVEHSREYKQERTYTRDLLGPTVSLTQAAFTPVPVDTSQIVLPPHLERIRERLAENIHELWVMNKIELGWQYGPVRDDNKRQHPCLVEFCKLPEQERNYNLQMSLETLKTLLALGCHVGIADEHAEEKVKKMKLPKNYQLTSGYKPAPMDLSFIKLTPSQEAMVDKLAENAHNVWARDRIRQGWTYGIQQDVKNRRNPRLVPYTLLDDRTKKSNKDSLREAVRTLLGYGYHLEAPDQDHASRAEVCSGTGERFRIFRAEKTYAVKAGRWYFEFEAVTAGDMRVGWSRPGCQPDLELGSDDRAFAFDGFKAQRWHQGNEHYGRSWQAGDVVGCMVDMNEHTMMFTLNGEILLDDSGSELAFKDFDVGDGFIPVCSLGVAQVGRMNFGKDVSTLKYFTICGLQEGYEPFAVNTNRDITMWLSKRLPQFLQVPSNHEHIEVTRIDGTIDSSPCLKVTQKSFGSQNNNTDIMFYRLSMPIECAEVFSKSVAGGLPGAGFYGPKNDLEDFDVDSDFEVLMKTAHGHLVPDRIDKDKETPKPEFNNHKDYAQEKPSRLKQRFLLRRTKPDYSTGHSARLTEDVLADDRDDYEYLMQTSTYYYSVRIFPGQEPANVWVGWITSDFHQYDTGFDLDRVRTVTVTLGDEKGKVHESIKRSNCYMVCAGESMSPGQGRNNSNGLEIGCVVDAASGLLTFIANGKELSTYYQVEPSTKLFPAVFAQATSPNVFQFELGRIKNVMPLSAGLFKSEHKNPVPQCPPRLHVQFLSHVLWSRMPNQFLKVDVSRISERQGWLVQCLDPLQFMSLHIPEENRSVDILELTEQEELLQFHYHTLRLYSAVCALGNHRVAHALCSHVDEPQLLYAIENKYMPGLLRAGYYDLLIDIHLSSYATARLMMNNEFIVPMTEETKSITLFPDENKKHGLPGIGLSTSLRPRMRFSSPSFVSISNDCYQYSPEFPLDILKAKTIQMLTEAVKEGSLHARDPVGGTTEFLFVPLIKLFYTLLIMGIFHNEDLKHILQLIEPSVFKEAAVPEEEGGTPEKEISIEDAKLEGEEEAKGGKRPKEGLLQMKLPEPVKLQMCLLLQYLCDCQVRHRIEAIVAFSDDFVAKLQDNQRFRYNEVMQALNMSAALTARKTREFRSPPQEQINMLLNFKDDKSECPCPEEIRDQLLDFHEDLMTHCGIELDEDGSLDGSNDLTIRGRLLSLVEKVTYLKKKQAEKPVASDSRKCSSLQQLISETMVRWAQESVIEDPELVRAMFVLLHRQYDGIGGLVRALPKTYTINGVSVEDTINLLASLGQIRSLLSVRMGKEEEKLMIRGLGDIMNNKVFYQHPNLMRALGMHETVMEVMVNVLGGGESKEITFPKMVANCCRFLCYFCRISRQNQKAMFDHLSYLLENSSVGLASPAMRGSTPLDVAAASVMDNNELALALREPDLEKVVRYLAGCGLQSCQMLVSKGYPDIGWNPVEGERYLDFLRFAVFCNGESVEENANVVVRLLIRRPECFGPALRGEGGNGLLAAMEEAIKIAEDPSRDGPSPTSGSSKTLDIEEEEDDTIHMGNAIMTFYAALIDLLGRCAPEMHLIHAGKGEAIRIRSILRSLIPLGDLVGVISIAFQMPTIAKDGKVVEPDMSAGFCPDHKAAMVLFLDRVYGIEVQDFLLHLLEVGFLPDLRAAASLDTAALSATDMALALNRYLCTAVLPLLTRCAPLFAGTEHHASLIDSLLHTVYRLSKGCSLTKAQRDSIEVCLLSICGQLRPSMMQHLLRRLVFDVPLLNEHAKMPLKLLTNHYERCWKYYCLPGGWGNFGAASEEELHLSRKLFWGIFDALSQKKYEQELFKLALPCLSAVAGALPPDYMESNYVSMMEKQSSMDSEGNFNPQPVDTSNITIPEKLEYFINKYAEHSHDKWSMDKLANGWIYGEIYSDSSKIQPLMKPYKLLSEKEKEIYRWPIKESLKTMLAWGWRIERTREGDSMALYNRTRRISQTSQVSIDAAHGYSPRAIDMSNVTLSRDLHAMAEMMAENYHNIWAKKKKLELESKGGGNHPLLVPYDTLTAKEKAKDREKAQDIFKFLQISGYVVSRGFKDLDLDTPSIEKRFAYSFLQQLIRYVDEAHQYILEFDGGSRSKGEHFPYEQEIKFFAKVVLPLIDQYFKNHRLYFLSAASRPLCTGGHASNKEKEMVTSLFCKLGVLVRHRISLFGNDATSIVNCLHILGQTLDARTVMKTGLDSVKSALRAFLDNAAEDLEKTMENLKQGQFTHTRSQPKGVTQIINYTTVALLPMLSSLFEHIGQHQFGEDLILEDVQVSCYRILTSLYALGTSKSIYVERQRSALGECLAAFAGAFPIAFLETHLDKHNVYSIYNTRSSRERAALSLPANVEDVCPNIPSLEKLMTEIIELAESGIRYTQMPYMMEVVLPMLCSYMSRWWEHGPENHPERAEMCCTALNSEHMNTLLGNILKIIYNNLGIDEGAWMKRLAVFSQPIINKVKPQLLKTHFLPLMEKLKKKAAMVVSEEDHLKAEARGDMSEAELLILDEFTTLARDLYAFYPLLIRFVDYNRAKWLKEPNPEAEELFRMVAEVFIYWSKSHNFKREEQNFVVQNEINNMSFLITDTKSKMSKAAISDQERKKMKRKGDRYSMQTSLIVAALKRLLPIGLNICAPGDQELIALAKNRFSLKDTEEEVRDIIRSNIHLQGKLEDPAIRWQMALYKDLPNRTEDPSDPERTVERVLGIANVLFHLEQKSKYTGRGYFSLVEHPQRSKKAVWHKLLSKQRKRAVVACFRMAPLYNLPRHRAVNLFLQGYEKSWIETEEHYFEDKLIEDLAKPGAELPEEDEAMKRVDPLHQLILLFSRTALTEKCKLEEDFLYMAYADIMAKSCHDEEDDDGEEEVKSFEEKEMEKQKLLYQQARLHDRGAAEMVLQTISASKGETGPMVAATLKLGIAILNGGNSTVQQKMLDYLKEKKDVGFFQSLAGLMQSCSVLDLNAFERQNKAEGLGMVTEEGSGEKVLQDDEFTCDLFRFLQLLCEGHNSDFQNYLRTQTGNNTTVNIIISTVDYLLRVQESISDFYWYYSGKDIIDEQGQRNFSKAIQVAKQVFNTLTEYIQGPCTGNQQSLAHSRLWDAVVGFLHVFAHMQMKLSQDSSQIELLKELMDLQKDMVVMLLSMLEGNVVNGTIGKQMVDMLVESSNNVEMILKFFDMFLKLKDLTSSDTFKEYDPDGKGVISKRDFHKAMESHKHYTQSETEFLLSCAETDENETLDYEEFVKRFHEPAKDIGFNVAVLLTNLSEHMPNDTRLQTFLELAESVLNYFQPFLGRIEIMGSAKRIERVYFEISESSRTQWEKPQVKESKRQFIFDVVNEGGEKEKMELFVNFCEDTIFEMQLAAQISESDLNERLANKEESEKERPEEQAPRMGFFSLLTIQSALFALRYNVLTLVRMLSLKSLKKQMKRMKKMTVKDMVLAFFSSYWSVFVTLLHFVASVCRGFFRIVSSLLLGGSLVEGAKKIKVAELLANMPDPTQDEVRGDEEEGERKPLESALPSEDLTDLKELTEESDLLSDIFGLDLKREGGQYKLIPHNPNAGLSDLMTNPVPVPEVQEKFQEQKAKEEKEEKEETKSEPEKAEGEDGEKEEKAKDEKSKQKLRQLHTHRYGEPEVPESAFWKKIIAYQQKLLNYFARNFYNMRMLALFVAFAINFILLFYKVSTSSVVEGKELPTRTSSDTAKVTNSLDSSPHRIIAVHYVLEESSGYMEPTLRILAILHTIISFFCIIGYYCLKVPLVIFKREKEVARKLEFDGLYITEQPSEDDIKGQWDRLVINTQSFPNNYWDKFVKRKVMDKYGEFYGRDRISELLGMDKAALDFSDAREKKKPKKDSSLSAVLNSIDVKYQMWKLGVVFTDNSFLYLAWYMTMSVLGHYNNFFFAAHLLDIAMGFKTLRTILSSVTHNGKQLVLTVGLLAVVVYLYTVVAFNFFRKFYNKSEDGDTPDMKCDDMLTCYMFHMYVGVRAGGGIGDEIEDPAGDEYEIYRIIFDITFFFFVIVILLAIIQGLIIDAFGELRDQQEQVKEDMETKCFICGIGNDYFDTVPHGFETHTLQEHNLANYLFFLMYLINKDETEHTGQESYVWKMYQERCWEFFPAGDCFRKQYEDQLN

In article PMC10726367, “1,4-Benzothiazepines with Cyclopropanol Groups and Their Structural Analogues Exhibit Both RyR2-Stabilizing and SERCA2a-Stimulating Activities” (Journal of Medicinal Chemistry, 2023):

Molecular target: T1, RyR2 (Mus musculus, UniProt E9Q401)
T1 construct: expressed in transfected cells; host or cells: HEK-293 cells stably expressing R-CEPIA1er with doxycycline-inducible WT RyR2
Assay: Time-lapse [Ca2+]ER assay (RyR2 R-CEPIA1er assay) in HEK-293 cells with inducible WT RyR2
Type: cell-based
From the text: To assess the functional potency of novel agents for modulating RyR2 channel activity, we measured changes in Ca^2+ levels in ER of HEK-293 cells with inducible expression of wild-type RyR2 (WT RyR2).[33],[34] Because the expression of WT RyR2 introduces an additional spontaneous Ca^2+ leak from the ER, these cells are suitable for our purpose of testing potential RyR2 stabilizers.[35] The cells additionally stably express the Ca^2+ fluorescence indicator R-CEPIA1er, which is a genetically encoded sensor protein of Ca^2+ in the ER (the cell line was a gift from T. Murayama, Department of Pharmacology, Juntendo University School of Medicine, Tokyo, Japan).[36]
The addition of these compounds, which are known to inhibit excessive cardiac RyR2 activity, should reduce Ca^2+ leak from the ER, thus increasing the R-CEPIA1er fluorescence.
The fluorescence plate reader [Ca^2+]ER assay was performed according to the slightly modified protocol of Murayama and Kurebayashi.[36] […] After the cells were inducted with doxycycline for 24 h, changes in ER calcium concentrations [Ca^2+]ER were measured on a multiwell plate reader TECAN Spark 20 M at 37 °C. […] The time courses were recorded in each well. Fluorescence was evoked by a 560 nm excitation wavelength and collected in a bottom-read mode at 610 nm. […]
The dose–response curves were calculated using the software package GraphPad Prism version 8.3.1. […]

effect on [Ca2+]ER / R-CEPIA1er fluorescence (F/F0): increase in R-CEPIA1er fluorescence
SMILES: COc1ccc2c(c1)CN(C)CCS2 [S107, 4-methyl-7-methoxy-2,3,4,5-tetrahydro-1,4-benzothiazepine, reference compound]
